Columns and labels:
[1] = pH, appearance and smell of neutralized aqueous solutions; format: physicochemical; conditions: 4% in water with 0.54% sodium hydroxide (Table 6)
Description: Three sets of color cosmetics (lipstick+eyeliner) were applied to the arms of 5 subjects with similar areas and thicknesses. The cosmetics were washed with the aqueous solutions in Table 6 (1 g of each) and then rinsed with tap water (the detergency was graded by the 5 subjects comprehensively).
The preparation procedures are as follows: Two 500-g beakers were weighed on an electronic balance, and the weights of the beakers were recorded; a proper amount of deionized water was weighed and added to the beakers according to the formula, and the beakers were heated to 75-80° C. in a water bath. The temperature of the water in the beaker was measured by a thermometer. […] At the start of the stirring, a proper amount of arginine was added to beaker (1) and a proper amount of 10% aqueous sodium hydroxide solution was added to beaker (2). The mixtures were stirred for 1 min. The temperature of the beakers (1) and (2) was reduced to 25° C. by running tap water. The evaporated water in the two beakers in the preparation process was compensated by cooled deionized water to 100% on an electronic balance. The pH of the products in the beaker (1) and (2) was measured, the appearance was observed, and the smell was confirmed.

[2] = Qualitative household application test; conditions: 12% aqueous solution of sodium salt

## N-lauroyl-L-alanine supramolecule [Example 1]
[1]
  Appearance: Transparent
  pH value: 7.25
[2]
  Irritation to hands: no irritation to hands

Reference: patent publication US20240325274A1, “SUPRAMOLECULAR AMINO ACID OR SALT THEREOF, AND PREPARATION METHOD THEREFOR AND APPLICATION THEREOF” (SUZHOU OULIT BIOPHARM CO., LTD., priority 2021, published 2024)
